Measurements published in patent US8138187B2, “Substituted heteroaryl derivatives” (Gruenenthal GmbH, priority 2006, dated 2012).

Amino acid sequences for entries named in this document (tags omitted).
UniProt P41146, whole entry: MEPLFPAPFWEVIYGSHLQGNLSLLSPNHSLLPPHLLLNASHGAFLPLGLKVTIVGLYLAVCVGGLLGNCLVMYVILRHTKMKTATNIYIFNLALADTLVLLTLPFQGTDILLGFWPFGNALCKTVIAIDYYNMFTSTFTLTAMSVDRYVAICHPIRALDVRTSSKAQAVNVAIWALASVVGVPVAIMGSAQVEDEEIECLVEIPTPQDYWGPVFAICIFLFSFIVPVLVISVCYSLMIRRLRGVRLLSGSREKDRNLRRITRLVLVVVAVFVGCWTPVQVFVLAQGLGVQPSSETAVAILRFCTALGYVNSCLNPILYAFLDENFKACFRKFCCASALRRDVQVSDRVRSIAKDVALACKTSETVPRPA
UniProt P35372, whole entry: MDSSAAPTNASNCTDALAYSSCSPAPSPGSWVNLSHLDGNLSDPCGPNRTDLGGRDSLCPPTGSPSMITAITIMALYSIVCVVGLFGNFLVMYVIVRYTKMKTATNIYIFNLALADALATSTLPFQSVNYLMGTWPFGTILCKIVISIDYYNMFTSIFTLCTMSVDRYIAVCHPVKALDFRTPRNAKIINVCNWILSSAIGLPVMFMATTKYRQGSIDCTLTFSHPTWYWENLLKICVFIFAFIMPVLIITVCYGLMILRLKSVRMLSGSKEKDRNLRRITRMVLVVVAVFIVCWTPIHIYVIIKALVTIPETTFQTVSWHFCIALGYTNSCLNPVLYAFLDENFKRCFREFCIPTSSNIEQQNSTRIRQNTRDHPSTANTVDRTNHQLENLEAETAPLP

Columns and labels:
ORL1 receptor = ORL1 receptor (Homo sapiens, UniProt P41146); assay: ORL1 receptor binding assay with 3H-nociceptin/orphanin FQ; details: 1 μM test compound; membranes from recombinant CHO-ORL1 cells
Protocol: Measurement of the ORL1 Binding
The compounds according to the invention were investigated in a receptor binding assay with ^3H-nociceptin/orphanin FQ with membranes from recombinant CHO-ORL1 cells. This test system was conducted in accordance with the method described by Ardati et al. (Mol. Pharmacol., 51, 1997, S. 816-824). The concentration of ^3H-nociceptin/orphanin FQ in these experiments was 0.5 nM. The binding assays were carried out with in each case 20 μg of membrane protein per 200 μl batch in 50 mM hepes, pH 7.4, 10 mM MgCl2 and 1 mM EDTA. The binding to the ORL1 receptor was determined using in each case 1 mg of WGA-SPA beads (Amersham-Pharmacia, Freiburg) by incubation of the batch at RT for one hour and subsequent measurement in a Trilux scintillation counter (Wallac, Finland). The affinity is stated in Table 1 as the nanomolar Ki value in or % inhibition at c=1 μM.

human μ opiate receptor = human μ opiate receptor (Homo sapiens, UniProt P35372); assay: μ binding, displacement of [3H]-naloxone; details: read-out: Ki [μM] (μ); CHO-K1 membranes expressing human μ opiate receptor; Cheng-Prusoff

## CN1CCN(CCc2c(C3CCC(c4ccccc4)(N(C)C)CC3)[nH]c3ccccc23)CC1 (centres unmarked)
ORL1 receptor
  % inhibition (ORL1) at 1 μM: 99%
Human μ opiate receptor
  Ki: 0.0003 µM
